AlphaSeq binding of Ab-14 light chain variants to a spike HR2 peptide

Target: peptide PDVDLGDISGINAS, taken from heptad repeat 2 (HR2) of SARS-CoV-2 spike.

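The starting antibody came from a phage panning campaign against this peptide. Variants in AAYL50 differ from the parent at up to three CDR positions; double and triple changes were sampled at random. Affinity was read by AlphaSeq, a pooled yeast mating assay with surface-displayed partners. Pairs that bind mate more often; barcode pairs of the diploids are counted by sequencing. Scores were corrected for input abundance and mapped to Kd with protein pairs of known affinity run in the same pool. There are three technical replicates.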

Ab-14 is the parent antibody, in scFv form: VH, then a (GGGGS)3 linker, then VL. The heavy chain is unchanged in all variants.
VH: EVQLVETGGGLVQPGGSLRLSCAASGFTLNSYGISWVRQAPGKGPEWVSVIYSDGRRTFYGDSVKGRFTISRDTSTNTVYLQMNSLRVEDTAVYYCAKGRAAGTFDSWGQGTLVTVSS
VL: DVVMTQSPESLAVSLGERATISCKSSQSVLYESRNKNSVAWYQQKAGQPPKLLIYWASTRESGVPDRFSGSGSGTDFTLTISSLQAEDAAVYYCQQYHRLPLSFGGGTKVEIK

Positions count from residue 1 of the parent VL; N35P puts P in place of N.
Every variant below is changed at N35 of the VL (sequential numbering).
Scale: log10 of Kd in nM, estimated from mating counts; low values are strong binders.
An entry "ND" has no value in the source: the pair was not observed among the diploids in that replicate. This suggests poor binding but is not conclusive.
Background: pairings of library AAYL50 with three empty control strains gave a value in 18% of cases (median 4.19, 5th percentile 2.99). Values in that range, when seen in few replicates, are hard to tell from nonspecific mating. Also given: how often the same scFv was detected with the empty control strains.
Parent in this assay: reference entry 0.65, copy in this library 1.68.

- N35P A40G R60D -> ND, ND, ND (controls 0 of 9)
- Q27Y S33Y N35K -> ND, 4.56, ND (controls 1 of 9)
- R34L N35R W56E -> 0.10, 0.27, 0.11 (controls 0 of 9)
- N35W R60A L102D -> 4.83, ND, 5.45 (controls 6 of 9)
- V29P Y31C N35I -> 3.23, 2.81, 3.07 (controls 0 of 9)
- N35P V39F R60V -> ND, ND, ND (controls 0 of 9)
- E32R N35Y R99V -> 1.73, ND, ND (controls 0 of 9)
- N35I S58Y R99N -> ND, ND, ND (controls 0 of 9)
- K24S Y31M N35T -> 1.63, 1.96, 2.40 (controls 0 of 9)
- N35T V39A E61C -> 6.21, 4.27, 6.10 (controls 3 of 9)
- N35Q N37K S58G -> 2.75, 2.91, 3.14 (controls 2 of 9)
- N35I S38G R99M -> ND, 4.01, 2.94 (controls 0 of 9)
- N35H W56N L100F -> -0.15, 0.23, 0.01 (controls 4 of 9)
- N35G A40H R99V -> ND, ND, ND (controls 1 of 9)
- K24P N35S P101C -> ND, ND, ND (controls 3 of 9)
- N35T H98M L102T -> ND, ND, ND (controls 1 of 9)
- N35L K36R H98E -> ND, ND, ND (controls 2 of 9)
- N35K A40F S62N -> ND, ND, ND (controls 0 of 9)
- N35K V39E E61C -> ND, ND, ND (controls 0 of 9)
- S33Y N35H A40K -> ND, ND, ND (controls 0 of 9)
- V29L N35Q L102N -> 0.29, 0.67, 0.46 (controls 2 of 9)
- S33W N35P R60C -> 3.74, ND, ND (controls 0 of 9)
- N35W Y97S L102R -> 1.22, 1.38, 1.45 (controls 2 of 9)
- S28R N35I -> 2.41, 3.18, 2.47 (controls 0 of 9)
- S26A N35K P101Q -> 1.52, 1.54, 1.54 (controls 2 of 9)
- S33I N35P P101N -> 3.04, 3.12, 4.06 (controls 6 of 9)
- N35W N37Y A57E -> 3.45, ND, ND (controls 0 of 9)
- E32S N35G S58V -> 2.54, 2.09, 2.18 (controls 2 of 9)
- S28W N35Y Q95W -> ND, ND, ND (controls 0 of 9)
- N35Q H98M -> 4.14, ND, ND (controls 3 of 9)
- R34N N35V S58M -> ND, 4.36, ND (controls 1 of 9)
- K24W N35Q R60K -> 3.72, 2.91, 3.33 (controls 4 of 9)

Repeated from above, the 2 best binders with a signal in all replicates:

- N35H W56N L100F = -0.15, 0.23, 0.01 (controls 4 of 9)
- R34L N35R W56E = 0.10, 0.27, 0.11 (controls 0 of 9)

Source: Engelhart et al. 2022 (doi:10.1038/s41597-022-01779-4), MIT Lincoln Laboratory and A-Alpha Bio; data file from the FLAb repository.